From article PMC4745676

How the values were obtained:
[1] = target: human IL-12 (human) (UniProt P29459); test: ELISA; direct ELISA-based receptor binding assay (as in ref. 50); OD450nm plotted against tIL12rβ1/Fc concentration; EC50 fitted with a single-site binding model
[2] = target: human IL-23 (human) (UniProt Q9NPF7); test: as above

| EC50 [1] | EC50 [2] | Substance |
| --- | --- | --- |
| 30.2 nM | – | human truncated IL12rβ1-Fc fusion protein (from UniProt P42701-1 24-236) |
| – | 32.7 nM | human truncated IL12rβ1-Fc fusion protein (from UniProt P42701-1 24-236) (Fc fusion; other documents disagree on this pair) |
